Assay results as given in US8906945B2 (priority 2009, dated 2014).

How the values were obtained:
[1] = test system: type II-mediated secretion of elastase from P. aeruginosa PA14; experiment: Elastase secretion assay (type II secretion); conditions: 50 μM
P. aeruginosa cells = conditions: listed as MBX 1641
CHO cells = experiment: Inherent cytotoxicity of compounds to CHO cells in the absence of P. aeruginosa (LDH release); conditions: 25 μM

Compound	effect on type II-mediated elastase secretion [1]	effect on extent or rate of growth of P. aeruginosa cells (P. aeruginosa cells)	cytotoxicity of the compound itself in the absence of P. aeruginosa cells (CHO cells)
CC(Oc1ccc(Cl)cc1Cl)C(=O)NCc1ccc2c(c1)OCO2 (racemic) [Compound 1, N-(benzo[d][1,3]dioxol-5-ylmethyl)-2-(2,4-dichlorophenoxy)propanamide]	nor do they inhibit the type II secretion system	minimal effects	–
CC(Oc1ccc(Cl)cc1Cl)C(=O)NCc1ccco1 (racemic) [compound 5685325, 2-(2,4-dichlorophenoxy)-N-(2-furylmethyl)propanamide]	–	–	about 8%
CC(Oc1ccc(Cl)cc1Cl)C(=O)NCc1ccc(F)cc1 (racemic) [compound 6380194, 2-(2,4-dichlorophenoxy)-N-(4-fluorobenzyl)propanamide]	–	–	~42%
CCN1CCOC(CC(=O)Nc2ccc3c(c2)OCCO3)C1=O (stereo not shown) [Compound 3, N-(2,3-dihydrobenzo[b][1,4]dioxin-6-yl)-2-(4-ethyl-3-oxomorpholin-2-yl)acetamide]	nor do they inhibit the type II secretion system	–	–
CCN1CCOC(CC(=O)Nc2ccc(F)cc2)C1=O (stereo not shown) [Compound 4, 2-(4-ethyl-3-oxomorpholin-2-yl)-N-(4-fluorophenyl)acetamide]	nor do they inhibit the type II secretion system	–	–
Cc1ccc(N2C(=O)C3C(C2=O)C2(C)C=CC3(C)O2)c(C)c1 (stereo not shown) [Compound 8, 2-(2,4-dimethylphenyl)-4,7-dimethyl-3a,4,7,7a-tetrahydro-1H-4,7-epoxyisoindole-1,3(2H)-dione]	nor do they inhibit the type II secretion system	–	–
